How the values were obtained:
Assay type in all cases: cell-based
DNA topoisomerase 1 [1] = target: T1, DNA topoisomerase 1 (Homo sapiens, UniProt P11387); assay: Inhibition topoisomerase 1 in human HeLa cells assessed as conversion of supercoiled pBR322 DNA to relaxed form
T1 sequence (P11387 whole entry): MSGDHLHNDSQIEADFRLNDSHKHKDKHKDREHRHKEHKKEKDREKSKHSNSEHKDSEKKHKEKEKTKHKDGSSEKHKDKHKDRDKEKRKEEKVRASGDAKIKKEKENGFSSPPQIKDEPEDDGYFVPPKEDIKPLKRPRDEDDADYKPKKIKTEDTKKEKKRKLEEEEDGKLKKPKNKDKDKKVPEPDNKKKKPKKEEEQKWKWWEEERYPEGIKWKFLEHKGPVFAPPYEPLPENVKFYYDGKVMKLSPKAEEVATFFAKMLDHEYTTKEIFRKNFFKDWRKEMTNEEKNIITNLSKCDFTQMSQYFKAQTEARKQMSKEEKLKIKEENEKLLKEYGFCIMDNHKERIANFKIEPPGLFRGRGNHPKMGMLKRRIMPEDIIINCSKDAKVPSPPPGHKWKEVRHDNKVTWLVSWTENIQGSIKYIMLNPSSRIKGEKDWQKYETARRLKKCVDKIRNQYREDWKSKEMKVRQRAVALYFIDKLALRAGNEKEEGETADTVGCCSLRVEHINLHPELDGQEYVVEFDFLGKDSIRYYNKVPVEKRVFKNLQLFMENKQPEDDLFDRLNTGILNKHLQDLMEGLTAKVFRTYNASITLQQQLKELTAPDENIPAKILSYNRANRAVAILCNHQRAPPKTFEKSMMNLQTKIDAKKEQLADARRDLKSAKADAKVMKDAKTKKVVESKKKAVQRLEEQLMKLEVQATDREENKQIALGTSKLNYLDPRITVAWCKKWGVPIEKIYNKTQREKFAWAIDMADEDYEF
Procedure, shortened: (§1)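 Topo I source: crude extract from cells grown 5 days, PBS-washed and pelleted (1 × 10^6 cells), then lysed 30 min on ice in Tris-HCl pH 7.5 buffer with MgCl2, EGTA, AEBSF, β-mercaptoethanol, 0.5% CHAPS and 10% glycerin. The cleared supernatant relaxes supercoiled pBR322 DNA. Products are resolved on agarose gel and scored by densitometry.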

DNA topoisomerase 1 [2] = target: T1, DNA topoisomerase 1; assay: Inhibition topoisomerase 1 in human A549 cells assessed as conversion of supercoiled pBR322 DNA to relaxed form; procedure, shortened: as §1
DNA topoisomerase 1 [3] = target: T1, DNA topoisomerase 1; assay: Inhibition topoisomerase 1 in human COLO201 cells assessed as conversion of supercoiled pBR322 DNA to relaxed form; procedure, shortened: as §1

Measured: IC50

COc1cccc2c1C(=O)c1c(O)c3c(c(O)c1C2=O)C[C@@](O)(C(=O)CO)C[C@@H]3O[C@H]1C[C@H](N)[C@H](O)[C@H](C)O1 [DOXORUBICIN]
> 200 µM: all assays above
